# Test results as given in PMC9362525 (Diabetologia, 2022).
# Tested on: adult participants, liver steatosis by VCTE
substance,measurement,value
mono(2-ethylhexyl) phthalate [MEHP],OR for NAFLD per unit increase of urinary concentration,no significant association
